Only a part is listed here, and it is no random draw. A structure can be active in one record and inactive in another. Some salts or complexes appear as unconnected parts, following the source record. Calls of active or inactive are those of the source. Cut-off read from the data, not from the text of the source: active = growth inhibition above about 70%; inactive = the rest.
Assay: NCI Yeast Anticancer Drug Screen. Data for the wt1 strain (AID 149);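 note: 0% = growth of vehicle-treated wt1 cultures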
Settings: S. cerevisiae wt1 strain (SPY 50644) growth inhibition, hits give high values
Experimental: Growth inhibition of yeast strains with defined genetic alterations is measured as a screen for potential anti-cancer activity. Selected strains with alterations in DNA damage repair or cell cycle control were exposed to compounds and growth inhibition was measured relative to vehicle treated controls. The strain used in this assay is wt1

Compound | growth inhibition (at 1.2 µM) | growth inhibition (at 3.7 µM) | growth inhibition (at 11.0 µM) | growth inhibition (at 33.0 µM) | growth inhibition (at 100.0 µM)
Cc1c2ccccc2cc2ccccc12.O=[N+]([O-])c1cc([N+](=O)[O-])c(O)c([N+](=O)[O-])c1 | inactive: -2% | inactive: 0% | inactive: 5% | inactive: 26% | active: 87%
COc1ccccc1N.O=[N+]([O-])c1cc([N+](=O)[O-])cc([N+](=O)[O-])c1 | inactive: -2% | inactive: 2% | inactive: 18% | active: 99% | active: 99%
[Au+].[Au+].c1ccc([PH+](c2ccccc2)c2ccccc2)cc1.c1ccc([PH+](c2ccccc2)c2ccccc2)cc1.n1n[n-]c(-c2nnn[n-]2)n1 | inactive: -9% | inactive: 14% | active: 92% | active: 99% | active: 99%
Nc1ccccc1.O=[N+]([O-])c1cc([N+](=O)[O-])cc([N+](=O)[O-])c1 | inactive: -1% | inactive: 1% | inactive: 14% | active: 99% | active: 99%
O=[N+]([O-])C(F)(COCC(O)CO)[N+](=O)[O-] (stereo not given) | inactive: -7% | inactive: -7% | inactive: 3% | inactive: 37% | active: 79%
Cc1cc2ccccc2cc1C.O=[N+]([O-])c1cc([N+](=O)[O-])cc([N+](=O)[O-])c1 | inactive: 1% | inactive: 4% | inactive: 2% | inactive: 7% | inactive: 58%
[Au+].[N-]=[N+]=N.c1ccc([PH+](c2ccccc2)c2ccccc2)cc1 | inactive: 15% | active: 96% | active: 99% | active: 97% | active: 94%
Cc1ccc2ccc3ccc4ccccc4c3c2c1.O=C1c2cc([N+](=O)[O-])ccc2-c2c1cc([N+](=O)[O-])cc2[N+](=O)[O-] | inactive: 0% | inactive: -15% | inactive: 0% | inactive: 3% | inactive: 7%

Source: PubChem BioAssay (NCI)
